Laboratory results as given in patent publication US9181275B2, “Mercaptoamidine derivatives and methods of use” (AbbVie Inc., priority 2011, dated 2015).

Chains of the proteins cited; added tags and fusions are not shown. Lines headed by an entry give the natural chain unless they say otherwise; changes in a name come on top.
UniProt Q9QYN8: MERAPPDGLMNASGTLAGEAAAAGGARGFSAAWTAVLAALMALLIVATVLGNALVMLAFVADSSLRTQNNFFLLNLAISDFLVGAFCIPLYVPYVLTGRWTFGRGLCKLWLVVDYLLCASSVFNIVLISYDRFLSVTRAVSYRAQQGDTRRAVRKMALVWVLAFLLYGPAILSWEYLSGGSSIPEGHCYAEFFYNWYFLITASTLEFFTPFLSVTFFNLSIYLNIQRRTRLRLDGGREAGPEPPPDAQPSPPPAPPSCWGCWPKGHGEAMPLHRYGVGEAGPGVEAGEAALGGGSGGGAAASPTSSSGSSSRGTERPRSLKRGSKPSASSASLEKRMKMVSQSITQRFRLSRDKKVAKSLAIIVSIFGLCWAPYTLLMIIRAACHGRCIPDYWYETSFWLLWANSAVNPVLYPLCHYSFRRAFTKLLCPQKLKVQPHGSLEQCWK

Target: native H3 receptors from rat cerebral cortices (Rattus norvegicus (Rat), UniProt Q9QYN8)
Assay: H3 receptor competition binding with [3H]-N-α-methylhistamine, rat cerebral cortex membranes
Conditions: [3H]-N-α-methylhistamine competition binding

Ki: 0.032 nM
SMILES: CC1=C(c2ccc(OCCCN3CCC[C@H]3CO)cc2)SC2=NCc3ccccc3CN21 [Example 1, ((2S)-1-{3-[4-(3-methyl-5,10-dihydro[1,3]thiazolo[3,2-b][2,4]benzodiazepin-2-yl)phenoxy]propyl}pyrrolidin-2-yl)methanol]
